Measurements: article PMC11997890, “In Vivo and In Vitro Pharmacokinetic Studies of a Dual Topoisomerase I/II Inhibitor” (ACS Pharmacology & Translational Science, 2025)

Amino acid sequences for entries named in this document (tags omitted).
UniProt P08183, whole entry, species assumed: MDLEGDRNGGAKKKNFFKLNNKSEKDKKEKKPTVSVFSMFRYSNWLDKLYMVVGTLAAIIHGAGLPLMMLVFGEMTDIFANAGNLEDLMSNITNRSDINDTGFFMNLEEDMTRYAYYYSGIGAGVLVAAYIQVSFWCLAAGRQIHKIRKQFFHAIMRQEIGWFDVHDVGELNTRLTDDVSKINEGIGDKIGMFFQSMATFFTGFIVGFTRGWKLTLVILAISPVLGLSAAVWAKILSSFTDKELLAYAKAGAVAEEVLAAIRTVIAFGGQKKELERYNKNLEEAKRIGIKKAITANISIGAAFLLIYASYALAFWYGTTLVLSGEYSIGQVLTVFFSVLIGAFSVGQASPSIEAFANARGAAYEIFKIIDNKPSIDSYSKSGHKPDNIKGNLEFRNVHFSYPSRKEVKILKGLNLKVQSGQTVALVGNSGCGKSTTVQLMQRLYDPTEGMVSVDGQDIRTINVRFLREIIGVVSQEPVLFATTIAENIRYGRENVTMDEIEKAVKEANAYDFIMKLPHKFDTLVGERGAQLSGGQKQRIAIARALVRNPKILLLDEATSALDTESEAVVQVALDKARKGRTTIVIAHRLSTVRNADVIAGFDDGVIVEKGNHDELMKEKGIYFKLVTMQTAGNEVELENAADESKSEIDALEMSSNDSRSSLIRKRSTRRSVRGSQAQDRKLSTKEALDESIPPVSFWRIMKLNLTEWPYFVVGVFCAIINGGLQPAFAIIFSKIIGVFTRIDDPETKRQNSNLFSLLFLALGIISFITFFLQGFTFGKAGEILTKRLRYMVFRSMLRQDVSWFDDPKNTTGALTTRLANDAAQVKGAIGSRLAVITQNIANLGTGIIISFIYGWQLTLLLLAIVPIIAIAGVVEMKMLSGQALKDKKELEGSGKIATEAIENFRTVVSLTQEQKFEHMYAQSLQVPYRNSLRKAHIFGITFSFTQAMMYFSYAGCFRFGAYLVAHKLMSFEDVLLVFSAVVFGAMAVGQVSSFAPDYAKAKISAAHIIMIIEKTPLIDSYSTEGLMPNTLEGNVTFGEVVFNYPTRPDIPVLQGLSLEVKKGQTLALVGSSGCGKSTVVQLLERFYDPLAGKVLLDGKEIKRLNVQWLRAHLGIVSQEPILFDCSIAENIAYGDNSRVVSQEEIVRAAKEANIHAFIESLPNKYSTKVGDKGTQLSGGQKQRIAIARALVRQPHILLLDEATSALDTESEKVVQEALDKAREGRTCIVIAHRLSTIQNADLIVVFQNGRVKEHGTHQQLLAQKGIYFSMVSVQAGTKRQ

Target: T1, P-GP (ABCB1) (Homo sapiens, UniProt P08183)
T1 construct: expressed in transfected cells; host or cells: MDCK (Madin Darby canine kidney)
Experiment: Transporter inhibition, calcein-AM accumulation in MDCK cells (P-GP overexpression)
Format: cell-based
Settings: intracellular accumulation of calcein-AM
Protocol: The inhibitory characteristics of P8-D6 on the classic efflux transporters P-GP and BCRP (ABCG2) were evaluated (Figure ).
A potential interaction of P8-D6 with the export protein P-GP (ABCB1) was evaluated in MDCK (P-GP overexpression) and MDCKII (BCRP overexpression) cells. P-GP interaction was determined by the measurement of calcein accumulation within the cells according to Bauer et al. Calcein-acetoxymethylester (calcein-AM) is a nonfluorescent, lipophilic and therefore highly cell-permeable ester. Once inside the cell, the ester bonds are rapidly cleaved by nonspecific esterases, generating highly fluorescent calcein, which is trapped inside the cell because of its hydrophilic nature. Because calcein-AM is a substrate for P-GP, inhibition of the transporter decreases efflux, which results in a higher intracellular fluorescence signal. Cells were washed 3 times with 37 °C Krebs–Ringer buffer and subsequently incubated with increasing concentrations of the test compound for 15 min at 37 °C. […] Fluorescence was measured using a Fluoroskan Ascent plate reader (Labsystems, Helsinki, FIN) with an excitation wavelength of 485 nm and an emission wavelength of 520 nm. […] All fluorescence values were corrected by subtracting the background fluorescence. The increase in cellular fluorescence caused by the test compound was referred to the fluorescence of the control (100%). […]

COc1ccc2c3c([nH]c2c1)[C@H](CC(C)C)N1C(=O)[C@H](CCC(=O)OC(C)(C)C)NC(=O)[C@@H]1C3 [KO-143, reference compound]
IC50: 4.23 µM
